This is an account of results in ChEMBL document CHEMBL1148822, “Principal component analysis differentiates the receptor binding profiles of three antipsychotic drug candidates from current antipsychotic drugs” (J Med Chem, 2007).

The chains behind the UniProt entries cited, without tags or fusion partners.
UniProt P34969, whole entry: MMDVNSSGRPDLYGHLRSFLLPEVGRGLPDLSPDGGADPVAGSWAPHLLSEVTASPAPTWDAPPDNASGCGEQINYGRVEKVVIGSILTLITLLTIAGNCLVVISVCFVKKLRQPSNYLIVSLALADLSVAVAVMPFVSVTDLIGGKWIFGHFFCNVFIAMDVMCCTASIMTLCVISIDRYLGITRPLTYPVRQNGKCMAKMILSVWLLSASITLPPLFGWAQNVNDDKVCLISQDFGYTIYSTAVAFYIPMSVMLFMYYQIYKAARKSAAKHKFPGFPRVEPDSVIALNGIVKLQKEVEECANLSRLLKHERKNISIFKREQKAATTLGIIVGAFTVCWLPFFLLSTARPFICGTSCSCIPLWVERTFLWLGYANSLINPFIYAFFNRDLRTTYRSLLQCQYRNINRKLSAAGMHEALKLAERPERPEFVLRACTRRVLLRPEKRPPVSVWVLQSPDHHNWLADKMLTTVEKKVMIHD

Molecules are shown by their SMILES.

For this experiment, the target named is 5-hydroxytryptamine receptor 7 (Homo sapiens, UniProt P34969). The experiment is described as follows: biochemical.

For orientation: Ki means a dissociation constant, usually derived from enzyme kinetics or from competition with a known ligand. In turn, `CCN1CCCC1CNC(=O)c1cc(S(=O)(=O)CC)c(N)cc1OC` (stereo unspecified) [AMISULPRIDE] showed a Ki of 25.1 nM.
